{"sequences": {"note": "By UniProt entry, the sequences of proteins in these tests, tags left out. Where a name states a change or a piece, a line headed by the entry shows the natural chain unless it says otherwise.", "UniProt P15170, whole entry": "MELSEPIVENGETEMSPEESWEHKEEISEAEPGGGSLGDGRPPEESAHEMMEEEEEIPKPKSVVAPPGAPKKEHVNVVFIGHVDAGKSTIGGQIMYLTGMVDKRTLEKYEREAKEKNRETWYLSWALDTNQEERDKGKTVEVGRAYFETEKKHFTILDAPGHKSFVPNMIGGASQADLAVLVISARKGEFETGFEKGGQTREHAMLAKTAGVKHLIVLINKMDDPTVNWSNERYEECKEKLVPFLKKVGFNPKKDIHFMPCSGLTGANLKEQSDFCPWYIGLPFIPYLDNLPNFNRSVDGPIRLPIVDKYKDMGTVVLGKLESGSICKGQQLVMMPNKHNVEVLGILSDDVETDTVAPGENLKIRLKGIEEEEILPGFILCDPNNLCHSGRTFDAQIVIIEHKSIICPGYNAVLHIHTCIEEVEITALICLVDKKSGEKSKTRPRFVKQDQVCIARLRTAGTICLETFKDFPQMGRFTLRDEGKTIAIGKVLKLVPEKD", "UniProt Q96SW2, whole entry": "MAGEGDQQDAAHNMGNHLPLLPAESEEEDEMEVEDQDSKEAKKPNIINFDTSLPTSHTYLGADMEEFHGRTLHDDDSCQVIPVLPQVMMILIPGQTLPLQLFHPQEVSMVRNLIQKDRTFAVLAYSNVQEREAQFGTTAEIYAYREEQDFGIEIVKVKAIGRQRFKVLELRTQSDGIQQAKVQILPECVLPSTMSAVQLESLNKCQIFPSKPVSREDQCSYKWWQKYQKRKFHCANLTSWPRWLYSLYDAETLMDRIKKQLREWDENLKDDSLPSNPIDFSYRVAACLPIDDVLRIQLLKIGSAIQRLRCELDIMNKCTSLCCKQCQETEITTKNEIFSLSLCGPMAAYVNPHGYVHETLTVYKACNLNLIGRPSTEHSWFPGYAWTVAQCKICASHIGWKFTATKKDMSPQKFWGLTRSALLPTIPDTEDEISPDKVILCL", "UniProt Q13422, whole entry": "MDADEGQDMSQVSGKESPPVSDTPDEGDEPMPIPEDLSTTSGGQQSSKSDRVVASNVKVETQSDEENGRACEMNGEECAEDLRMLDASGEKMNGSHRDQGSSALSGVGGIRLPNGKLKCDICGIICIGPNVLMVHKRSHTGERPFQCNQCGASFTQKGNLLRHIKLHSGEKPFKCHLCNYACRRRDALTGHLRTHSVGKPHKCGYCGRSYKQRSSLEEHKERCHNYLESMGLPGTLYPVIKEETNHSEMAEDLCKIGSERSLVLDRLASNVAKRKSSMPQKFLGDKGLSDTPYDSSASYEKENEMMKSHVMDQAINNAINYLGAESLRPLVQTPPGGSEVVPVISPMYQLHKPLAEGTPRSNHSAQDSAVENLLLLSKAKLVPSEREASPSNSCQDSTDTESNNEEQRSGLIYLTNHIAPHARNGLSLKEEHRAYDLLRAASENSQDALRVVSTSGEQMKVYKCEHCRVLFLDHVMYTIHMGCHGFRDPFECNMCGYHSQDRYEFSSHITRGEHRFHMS", "UniProt Q9UKS7, whole entry": "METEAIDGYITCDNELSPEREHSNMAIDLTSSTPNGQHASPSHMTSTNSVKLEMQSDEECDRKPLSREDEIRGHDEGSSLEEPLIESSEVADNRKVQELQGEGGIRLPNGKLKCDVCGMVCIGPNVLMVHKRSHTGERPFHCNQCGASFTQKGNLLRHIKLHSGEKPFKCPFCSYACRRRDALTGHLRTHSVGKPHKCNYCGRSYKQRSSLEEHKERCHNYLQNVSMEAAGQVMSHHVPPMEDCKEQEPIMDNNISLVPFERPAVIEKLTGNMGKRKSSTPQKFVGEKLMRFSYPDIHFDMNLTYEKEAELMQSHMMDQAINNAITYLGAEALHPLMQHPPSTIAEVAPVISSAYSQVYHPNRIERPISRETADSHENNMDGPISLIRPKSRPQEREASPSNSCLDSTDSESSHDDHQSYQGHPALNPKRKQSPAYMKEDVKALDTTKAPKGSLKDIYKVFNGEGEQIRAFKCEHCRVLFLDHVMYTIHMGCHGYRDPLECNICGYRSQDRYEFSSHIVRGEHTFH", "UniProt Q9UKT9, whole entry": "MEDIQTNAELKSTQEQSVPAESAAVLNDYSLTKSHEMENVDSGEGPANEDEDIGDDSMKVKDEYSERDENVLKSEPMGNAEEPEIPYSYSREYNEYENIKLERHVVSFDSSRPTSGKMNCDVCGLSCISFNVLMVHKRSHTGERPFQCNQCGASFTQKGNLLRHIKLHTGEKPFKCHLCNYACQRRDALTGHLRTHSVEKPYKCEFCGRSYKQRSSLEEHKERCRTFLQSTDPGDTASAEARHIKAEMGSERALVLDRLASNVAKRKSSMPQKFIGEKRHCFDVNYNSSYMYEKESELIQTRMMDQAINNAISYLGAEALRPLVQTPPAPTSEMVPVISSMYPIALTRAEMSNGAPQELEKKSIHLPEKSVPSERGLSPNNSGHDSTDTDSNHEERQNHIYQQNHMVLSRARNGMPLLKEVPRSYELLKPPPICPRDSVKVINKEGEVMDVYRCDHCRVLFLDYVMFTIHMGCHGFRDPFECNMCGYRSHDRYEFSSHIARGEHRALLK", "UniProt P30291, whole entry": "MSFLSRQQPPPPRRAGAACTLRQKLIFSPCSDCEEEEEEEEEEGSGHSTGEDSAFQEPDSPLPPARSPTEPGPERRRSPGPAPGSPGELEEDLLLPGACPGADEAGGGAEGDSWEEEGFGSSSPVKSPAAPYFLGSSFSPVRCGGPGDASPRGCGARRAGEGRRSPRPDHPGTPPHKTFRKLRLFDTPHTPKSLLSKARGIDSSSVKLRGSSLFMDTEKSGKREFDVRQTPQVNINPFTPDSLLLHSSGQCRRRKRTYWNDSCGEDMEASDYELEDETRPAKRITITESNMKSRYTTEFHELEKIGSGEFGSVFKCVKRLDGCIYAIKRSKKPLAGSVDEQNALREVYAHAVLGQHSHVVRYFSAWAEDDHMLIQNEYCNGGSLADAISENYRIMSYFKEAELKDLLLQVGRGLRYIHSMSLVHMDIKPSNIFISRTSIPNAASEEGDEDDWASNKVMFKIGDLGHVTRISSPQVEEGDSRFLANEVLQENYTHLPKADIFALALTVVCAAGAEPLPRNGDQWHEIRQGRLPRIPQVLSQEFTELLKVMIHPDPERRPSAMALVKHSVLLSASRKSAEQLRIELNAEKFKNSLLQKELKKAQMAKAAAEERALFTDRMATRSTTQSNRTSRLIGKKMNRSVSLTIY", "UniProt P48729, whole entry": "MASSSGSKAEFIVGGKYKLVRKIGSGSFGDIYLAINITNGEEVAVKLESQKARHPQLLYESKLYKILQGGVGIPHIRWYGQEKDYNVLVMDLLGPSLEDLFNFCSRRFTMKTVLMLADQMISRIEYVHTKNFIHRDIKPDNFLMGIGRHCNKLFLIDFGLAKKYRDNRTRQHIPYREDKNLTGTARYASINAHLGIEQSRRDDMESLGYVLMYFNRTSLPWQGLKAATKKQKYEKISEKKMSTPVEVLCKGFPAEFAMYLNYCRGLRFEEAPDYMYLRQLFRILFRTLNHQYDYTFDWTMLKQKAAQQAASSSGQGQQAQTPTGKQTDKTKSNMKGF", "UniProt Q16531, whole entry partner": "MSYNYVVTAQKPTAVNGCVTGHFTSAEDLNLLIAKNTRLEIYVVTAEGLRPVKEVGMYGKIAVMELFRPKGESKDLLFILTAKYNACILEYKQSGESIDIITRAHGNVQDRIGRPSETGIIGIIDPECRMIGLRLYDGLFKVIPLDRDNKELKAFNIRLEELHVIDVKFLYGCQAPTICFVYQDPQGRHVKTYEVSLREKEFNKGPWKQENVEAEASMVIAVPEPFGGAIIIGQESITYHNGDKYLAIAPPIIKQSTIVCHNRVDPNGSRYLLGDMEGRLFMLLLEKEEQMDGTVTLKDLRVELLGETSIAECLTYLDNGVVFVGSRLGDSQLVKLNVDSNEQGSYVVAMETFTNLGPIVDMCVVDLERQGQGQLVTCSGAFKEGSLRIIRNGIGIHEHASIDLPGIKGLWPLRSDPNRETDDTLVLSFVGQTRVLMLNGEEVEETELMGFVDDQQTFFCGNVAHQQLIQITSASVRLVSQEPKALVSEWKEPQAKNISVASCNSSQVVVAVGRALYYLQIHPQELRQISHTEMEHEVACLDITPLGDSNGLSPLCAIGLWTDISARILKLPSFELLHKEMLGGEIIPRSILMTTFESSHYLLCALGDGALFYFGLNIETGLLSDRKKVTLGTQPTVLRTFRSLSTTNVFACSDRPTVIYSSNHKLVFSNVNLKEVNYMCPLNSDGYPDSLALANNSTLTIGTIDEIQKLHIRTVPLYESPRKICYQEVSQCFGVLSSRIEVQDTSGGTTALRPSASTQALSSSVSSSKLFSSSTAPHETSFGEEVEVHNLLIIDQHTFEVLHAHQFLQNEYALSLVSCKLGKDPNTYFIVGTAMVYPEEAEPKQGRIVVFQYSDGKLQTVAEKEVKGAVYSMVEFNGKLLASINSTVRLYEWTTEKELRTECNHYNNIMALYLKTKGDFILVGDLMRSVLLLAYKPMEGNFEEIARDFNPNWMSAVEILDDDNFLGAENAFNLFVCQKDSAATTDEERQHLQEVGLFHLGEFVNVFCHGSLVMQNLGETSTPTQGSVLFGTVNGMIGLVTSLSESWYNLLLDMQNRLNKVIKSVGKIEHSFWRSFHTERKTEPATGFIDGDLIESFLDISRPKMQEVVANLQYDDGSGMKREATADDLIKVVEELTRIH"}, "source": "patent EP4834897A1", "about": "“COMPOUNDS WITH TWO AZAHETEROCYCLES SUBSTITUTED ISOINDOLINONE SKELETON AND USES THEREOF” (dated 2026)", "data": [{"target": "GSPT1 (Homo sapiens, UniProt P15170+Q96SW2)", "assay": "Western blot assay of substrate protein degradation in hPBMCs", "conditions": "24 hours treatment, compounds at 50 nM and 500 nM (concentration behind the class not stated)", "values": [{"smiles": "O=C1CCC(N2Cc3c(C(=O)N4CCC(N5CCN(C(c6ccccc6)c6ccccc6)CC5)CC4)cccc3C2=O)C(=O)N1", "note": "(centres unmarked)", "substrate protein remaining % (GSPT1)": "A (0% ≤ substrate protein remaining % ≤ 80%)"}, {"smiles": "O=C1CCC(N2Cc3cc(C(=O)N4CCC(N5CCN(c6noc7cc(F)ccc67)CC5)CC4)c(F)cc3C2=O)C(=O)N1", "note": "(centres unmarked)", "substrate protein remaining % (GSPT1)": "A (0% ≤ substrate protein remaining % ≤ 80%)"}, {"smiles": "O=C1CCC(N2Cc3ccc(C(=O)N4CCC(N5CCN(c6noc7cc(F)ccc67)CC5)CC4)cc3C2=O)C(=O)N1", "note": "(centres unmarked)", "substrate protein remaining % (GSPT1)": "A (0% ≤ substrate protein remaining % ≤ 80%)"}]}, {"target": "IKZF1 (Homo sapiens, UniProt Q13422+Q96SW2)", "assay": "Western blot assay of substrate protein degradation in hPBMCs", "conditions": "24 hours treatment, compounds at 50 nM and 500 nM (concentration behind the class not stated)", "values": [{"smiles": "O=C1CCC(N2Cc3c(C(=O)N4CCC(N5CCN(C(c6ccccc6)c6ccccc6)CC5)CC4)cccc3C2=O)C(=O)N1", "note": "(centres unmarked)", "substrate protein remaining % (IKZF 1)": "B (80%< substrate protein remaining %≤ 100%)"}, {"smiles": "O=C1CCC(N2Cc3cc(C(=O)N4CCC(N5CCN(c6noc7cc(F)ccc67)CC5)CC4)c(F)cc3C2=O)C(=O)N1", "note": "(centres unmarked)", "substrate protein remaining % (IKZF 1)": "B (80%< substrate protein remaining %≤ 100%)"}, {"smiles": "O=C1CCC(N2Cc3ccc(C(=O)N4CCC(N5CCN(c6noc7cc(F)ccc67)CC5)CC4)cc3C2=O)C(=O)N1", "note": "(centres unmarked)", "substrate protein remaining % (IKZF 1)": "B (80%< substrate protein remaining %≤ 100%)"}]}, {"target": "IKZF2 (Homo sapiens, UniProt Q96SW2+Q9UKS7)", "assay": "Western blot assay of substrate protein degradation in hPBMCs", "conditions": "24 hours treatment, compounds at 50 nM and 500 nM (concentration behind the class not stated)", "values": [{"smiles": "O=C1CCC(N2Cc3c(C(=O)N4CCC(N5CCN(C(c6ccccc6)c6ccccc6)CC5)CC4)cccc3C2=O)C(=O)N1", "note": "(centres unmarked)", "substrate protein remaining % (IKZF2)": "B (80%< substrate protein remaining %≤ 100%)"}, {"smiles": "O=C1CCC(N2Cc3cc(C(=O)N4CCC(N5CCN(c6noc7cc(F)ccc67)CC5)CC4)c(F)cc3C2=O)C(=O)N1", "note": "(centres unmarked)", "substrate protein remaining % (IKZF2)": "B (80%< substrate protein remaining %≤ 100%)"}, {"smiles": "O=C1CCC(N2Cc3ccc(C(=O)N4CCC(N5CCN(c6noc7cc(F)ccc67)CC5)CC4)cc3C2=O)C(=O)N1", "note": "(centres unmarked)", "substrate protein remaining % (IKZF2)": "B (80%< substrate protein remaining %≤ 100%)"}]}, {"target": "IKZF3 (Homo sapiens, UniProt Q96SW2+Q9UKT9)", "assay": "Western blot assay of substrate protein degradation in hPBMCs", "conditions": "24 hours treatment, compounds at 50 nM and 500 nM (concentration behind the class not stated)", "values": [{"smiles": "O=C1CCC(N2Cc3c(C(=O)N4CCC(N5CCN(C(c6ccccc6)c6ccccc6)CC5)CC4)cccc3C2=O)C(=O)N1", "note": "(centres unmarked)", "substrate protein remaining % (IKZF3)": "B (80%< substrate protein remaining %≤ 100%)"}, {"smiles": "O=C1CCC(N2Cc3cc(C(=O)N4CCC(N5CCN(c6noc7cc(F)ccc67)CC5)CC4)c(F)cc3C2=O)C(=O)N1", "note": "(centres unmarked)", "substrate protein remaining % (IKZF3)": "B (80%< substrate protein remaining %≤ 100%)"}, {"smiles": "O=C1CCC(N2Cc3ccc(C(=O)N4CCC(N5CCN(c6noc7cc(F)ccc67)CC5)CC4)cc3C2=O)C(=O)N1", "note": "(centres unmarked)", "substrate protein remaining % (IKZF3)": "B (80%< substrate protein remaining %≤ 100%)"}]}, {"target": "WEE1 (Homo sapiens, UniProt P30291+Q96SW2)", "assay": "Western blot assay of substrate protein degradation in hPBMCs", "conditions": "24 hours treatment, compounds at 50 nM and 500 nM (concentration behind the class not stated)", "values": [{"smiles": "O=C1CCC(N2Cc3c(C(=O)N4CCC(N5CCN(C(c6ccccc6)c6ccccc6)CC5)CC4)cccc3C2=O)C(=O)N1", "note": "(centres unmarked)", "substrate protein remaining % (WEE1)": "B (80%< substrate protein remaining %≤ 100%)"}, {"smiles": "O=C1CCC(N2Cc3cc(C(=O)N4CCC(N5CCN(c6noc7cc(F)ccc67)CC5)CC4)c(F)cc3C2=O)C(=O)N1", "note": "(centres unmarked)", "substrate protein remaining % (WEE1)": "A (0% ≤ substrate protein remaining % ≤ 80%)"}, {"smiles": "O=C1CCC(N2Cc3ccc(C(=O)N4CCC(N5CCN(c6noc7cc(F)ccc67)CC5)CC4)cc3C2=O)C(=O)N1", "note": "(centres unmarked)", "substrate protein remaining % (WEE1)": "B (80%< substrate protein remaining %≤ 100%)"}]}, {"target": "CK1α (Homo sapiens, UniProt P48729+Q96SW2)", "assay": "Western blot assay of substrate protein degradation in hPBMCs", "conditions": "24 hours treatment, compounds at 50 nM and 500 nM (concentration behind the class not stated)", "values": [{"smiles": "O=C1CCC(N2Cc3c(C(=O)N4CCC(N5CCN(C(c6ccccc6)c6ccccc6)CC5)CC4)cccc3C2=O)C(=O)N1", "note": "(centres unmarked)", "substrate protein remaining % (CK1a)": "B (80%< substrate protein remaining %≤ 100%)"}, {"smiles": "O=C1CCC(N2Cc3cc(C(=O)N4CCC(N5CCN(c6noc7cc(F)ccc67)CC5)CC4)c(F)cc3C2=O)C(=O)N1", "note": "(centres unmarked)", "substrate protein remaining % (CK1a)": "A (0% ≤ substrate protein remaining % ≤ 80%)"}, {"smiles": "O=C1CCC(N2Cc3ccc(C(=O)N4CCC(N5CCN(c6noc7cc(F)ccc67)CC5)CC4)cc3C2=O)C(=O)N1", "note": "(centres unmarked)", "substrate protein remaining % (CK1a)": "B (80%< substrate protein remaining %≤ 100%)"}]}, {"target": "CRBN (Homo sapiens, UniProt Q96SW2)", "assay": "CRBN binding affinity by HTRF (CEREBLON BINDING kit)", "conditions": "CRBN binding, HTRF, compound at 0.5 µM", "values": [{"smiles": "O=C1CCC(N2Cc3c(C(=O)N4CCC(N5CCN(C(c6ccccc6)c6ccccc6)CC5)CC4)cccc3C2=O)C(=O)N1", "note": "(centres unmarked)", "Inhibition Rate at 0.5 µM (%)": "a3 (30% < a3 ≤ 40%)"}]}, {"target": "CRBN (Homo sapiens, UniProt Q96SW2)", "assay": "CRBN binding affinity by HTRF (CEREBLON BINDING kit)", "conditions": "CRBN binding, HTRF, compound at 2 µM", "values": [{"smiles": "O=C1CCC(N2Cc3c(C(=O)N4CCC(N5CCN(C(c6ccccc6)c6ccccc6)CC5)CC4)cccc3C2=O)C(=O)N1", "note": "(centres unmarked)", "Inhibition Rate at 2 µM (%)": "a6 (60% < a6 ≤ 70%)"}]}, {"tested_on": "Human myeloid monocytic leukemia cell (MV-4-11)", "assay": "Tumor cell proliferation inhibition (cell viability assay)", "conditions": "MV-4-11 cells; 10 nM; 96 hours", "values": [{"smiles": "O=C1CCC(N2Cc3c(C(=O)N4CCC(N5CCN(C(c6ccccc6)c6ccccc6)CC5)CC4)cccc3C2=O)C(=O)N1", "note": "(centres unmarked)", "Inhibition Rate at 10 nM (%)": "1a5 (30% ≤ 1a5 ≤ 40%)"}, {"smiles": "O=C1CCC(N2Cc3cc(C(=O)N4CCC(N5CCN(c6noc7cc(F)ccc67)CC5)CC4)c(F)cc3C2=O)C(=O)N1", "note": "(centres unmarked)", "Inhibition Rate at 10 nM (%)": "1a5 (30% ≤ 1a5 ≤ 40%)"}, {"smiles": "O=C1CCC(N2Cc3ccc(C(=O)N4CCC(N5CCN(c6noc7cc(F)ccc67)CC5)CC4)cc3C2=O)C(=O)N1", "note": "(centres unmarked)", "Inhibition Rate at 10 nM (%)": "1a5 (30% ≤ 1a5 ≤ 40%)"}]}, {"tested_on": "Human myeloid monocytic leukemia cell (MV-4-11)", "assay": "Tumor cell proliferation inhibition (cell viability assay)", "conditions": "MV-4-11 cells; 500 nM; 96 hours", "values": [{"smiles": "O=C1CCC(N2Cc3c(C(=O)N4CCC(N5CCN(C(c6ccccc6)c6ccccc6)CC5)CC4)cccc3C2=O)C(=O)N1", "note": "(centres unmarked)", "Inhibition Rate at 500 nM (%)": "1a9 (70% ≤ 1a9 < 80%)"}, {"smiles": "O=C1CCC(N2Cc3cc(C(=O)N4CCC(N5CCN(c6noc7cc(F)ccc67)CC5)CC4)c(F)cc3C2=O)C(=O)N1", "note": "(centres unmarked)", "Inhibition Rate at 500 nM (%)": "1a8 (60% ≤ 1a8 < 70%)"}, {"smiles": "O=C1CCC(N2Cc3ccc(C(=O)N4CCC(N5CCN(c6noc7cc(F)ccc67)CC5)CC4)cc3C2=O)C(=O)N1", "note": "(centres unmarked)", "Inhibition Rate at 500 nM (%)": "1a7 (50% ≤ 1a7 < 60%)"}]}]}
